Experimental findings from US8227511B2, “Substituted chromanol derivatives and their use” (Bayer Intellectual Property GmbH, priority 2006, dated 2012) are described below.

Sequences of proteins named here, by UniProt entry; tags and fusion partners are left off. Residues count along the entry.
UniProt P11597, 18-493 limits assumed: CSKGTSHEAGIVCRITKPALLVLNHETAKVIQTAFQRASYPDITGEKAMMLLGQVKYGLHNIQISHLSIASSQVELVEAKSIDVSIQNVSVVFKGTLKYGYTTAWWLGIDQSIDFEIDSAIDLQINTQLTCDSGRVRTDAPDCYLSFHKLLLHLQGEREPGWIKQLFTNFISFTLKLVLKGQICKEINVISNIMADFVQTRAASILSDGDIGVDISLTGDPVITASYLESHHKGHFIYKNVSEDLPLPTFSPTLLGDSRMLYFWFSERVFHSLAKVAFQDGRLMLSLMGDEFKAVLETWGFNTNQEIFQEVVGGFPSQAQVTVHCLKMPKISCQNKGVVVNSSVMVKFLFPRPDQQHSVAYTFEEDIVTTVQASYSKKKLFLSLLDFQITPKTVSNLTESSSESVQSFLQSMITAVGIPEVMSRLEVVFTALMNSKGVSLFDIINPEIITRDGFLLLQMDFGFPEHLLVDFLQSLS

The target of test [1] is T1, CETP (Homo sapiens, UniProt P11597). Description: CETP fluorescence test with enriched CETP. To be noted: read-out: IC50 [nM] fluorescence test; enriched CETP fraction from human plasma; transfer of fluorescent cholesterol ester between liposomes; 37° C. for 4 h. The protocol:
(§1) CETP is obtained in partially purified form from human plasma by differential centrifugation and column chromatography and used for the test. To this end, human plasma is adjusted to a density of 1.21 g per ml using NaBr and centrifuged at 4° C. at 50 000 rpm for 18 h. The bottom fraction (d>1.21 g/ml) is applied to a Phenyl-Sepharose 26/10 HP fast flow-column (Pharmacia), washed with PBS buffer and then eluted with distilled water. 10 parts of PBS buffer and 1% (w/v) BSA are added to the eluate. The CETP-active fractions are pooled.
Measurement of the CETP-catalyzed transfer of a fluorescent cholesterol ester between liposomes [modified according to the procedure of Bisgaier et al., J. Lipid Res. 34, 1625 (1993)]:
For the production of the donor liposomes, 1 mg of cholesteryl 4,4-difluoro-5,7-dimethyl-4-bora-3a,4a-diaza-s-indacene-3-dodecanoate (cholesteryl BODIPY® FL C12, Molecular Probes) is dissolved in 2 ml of chloroform with 5.35 mg of triolein and 6.67 mg of phosphatidylcholine. The solvent is removed at medium temperature in a SpeedVac and the residue is dried under high vacuum for 1 h. […]
The change in the fluorescence at 485/535 nm is a measure of the CE transfer; the inhibition of the transfer in comparison to the control batch without substance is determined.

For test [2], the target named is T1, CETP. The test can be described thus: CETP-SPA test. To be noted: read-out: IC50 [nM] SPA test; transfer of 3H-cholesterol ester from human HDL to biotinylated LDL; 37° C. for 18 h. The protocol: as §1
For testing of the CETP activity, the transfer of ^3H-cholesterol ester from human HD lipoproteins to biotinylated LD lipoproteins is measured. The reaction is ended by addition of streptavidin-SPA® beads (Amersham) and the transferred radioactivity is determined directly in a liquid scintillation counter.
In the test batch, 10 μl of HDL-3H-cholesterol ester (about 50 000 cpm) are incubated at 37° C. for 18 h with 10 μl of biotin-LDL (Amersham) in 50 mM Hepes/0.15 M NaCl/0.1% bovine serum albumin (RSA)/0.05% NaN3 pH 7.4 containing 10 μl of CETP (1 mg/ml) and 3 μl of a solution of the substance to be tested (dissolved in 10% DMSO/1% RSA). 200 μl of the SPA-streptavidin bead solution (TRKQ 7005) are then added, incubated further with shaking for 1 h and then measured in a scintillation counter. […]

For `CC(C)c1cc2c(c(-c3ccc(F)cc3)c1[C@@H](F)c1ccc(C(F)(F)F)cc1)[C@@H](O)CC1(CC1)O2`, the IC50 on CETP [1] came to 14 nM; on CETP [2] it was 6 nM.

Usually IC50 stands for the point on the concentration scale where inhibition reaches its midpoint.
